Target: T1, acetylcholinesterase (Rattus norvegicus, UniProt P37136)
T1 sequence (P37136 32-614): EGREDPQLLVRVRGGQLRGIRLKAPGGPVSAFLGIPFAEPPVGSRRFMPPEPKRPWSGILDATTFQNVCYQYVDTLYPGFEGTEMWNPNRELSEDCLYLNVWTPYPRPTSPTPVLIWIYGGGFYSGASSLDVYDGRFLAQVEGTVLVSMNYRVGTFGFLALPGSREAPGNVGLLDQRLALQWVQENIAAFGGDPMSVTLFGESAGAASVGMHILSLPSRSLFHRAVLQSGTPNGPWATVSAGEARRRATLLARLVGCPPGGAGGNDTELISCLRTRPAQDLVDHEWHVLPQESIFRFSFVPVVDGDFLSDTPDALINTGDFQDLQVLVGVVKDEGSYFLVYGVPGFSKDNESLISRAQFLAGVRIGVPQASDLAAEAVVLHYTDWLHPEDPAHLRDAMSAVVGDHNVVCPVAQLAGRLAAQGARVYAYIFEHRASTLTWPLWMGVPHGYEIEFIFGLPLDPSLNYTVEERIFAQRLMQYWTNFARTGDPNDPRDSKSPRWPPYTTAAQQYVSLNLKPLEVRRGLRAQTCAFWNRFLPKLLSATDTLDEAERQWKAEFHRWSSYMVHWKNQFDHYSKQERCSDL
Conditions: AChE in vitro
Experimental: Cholinesterases are found throughout the body, both in the brain and in serum. However, only brain acetylcholinesterase (AChE) distribution is correlated with central cholinergic innervation.
The method described below was used in this invention for assaying cholinesterase activity. This is a modification of the method of Ellman et al., Biochem. Pharmacol. 7, 98 (1961).
• A. Reagents - • 1. 0.05 M Phosphate buffer, pH 7.2 • (a) 6.85 g NaH2PO4•H2O/100 ml distilled H2O • (b) 13.40 g Na2HPO4•7H2O/100 ml distilled H2O • (c) add (a) to (b) until pH reaches 7.2 • (d) Dilute 1:10 • 2. Substrate in buffer • (a) 198 mg acetylthiocholine chloride (10 mM) • (b) q.s to 100 ml with 0.05 M phosphate buffer, pH 7.2 (reagent 1) • 3. DTNB in buffer • (a) 19.8 mg 5,5-dithiobisnitrobenzoic acid (DTNB) (0.5 mM) • (b) q.s. to 100 ml with 0.05 M phosphate buffer, pH 7.2 (reagent 1) • 4. […] If active, IC50 values are determined from the inhibitory activity of subsequent concentrations. • B. Tissue Preparation- Male Wistar rats are decapitated, brains rapidly removed, copora striata disected free, weighed and homogenized in 19 volumes (approximately 7 mg protein/ml) of 0.05 M phosphate buffer, pH 7.2 using a Potter-Elvehjem homogenizer. […] Assay- Enzyme activity is measured with the Beckman DU-50 spectrophotometer. […]

Which IC50 does the source give for “(3aS-cis)-1,2,3,3a,8,8a-hexahydro-1,3a,8-trimethylpyrrolo[2,3-b]indol-5-ol,(1,2,3,4-tetrahydroisoquinolinyl)carbamate [Compound A]” here?
Its IC50 is 36 nM.

From patent EP0538248B1, “TETRAHYDROISOQUINOLINYLCARBAMATES OF 1,2,3,3A,8,8A-HEXAHYDRO-1,3A,8-TRIMETHYLPYRROLO [2,3-B]INDOLE” (priority 1990, dated 1992)
